From US20220017495A1, “CONJUGATES OF BIVALENT EVANS BLUE DYE DERIVATIVES AND METHODS OF USE” (THE UNITED STATES OF AMERICA, AS REPRESENTED BY THE …, priority 2019, published 2022)

Protein sequences, listed by entry. Tags and fused reporters are not part of them. Residues count along the entry.
UniProt P02768, 25-609: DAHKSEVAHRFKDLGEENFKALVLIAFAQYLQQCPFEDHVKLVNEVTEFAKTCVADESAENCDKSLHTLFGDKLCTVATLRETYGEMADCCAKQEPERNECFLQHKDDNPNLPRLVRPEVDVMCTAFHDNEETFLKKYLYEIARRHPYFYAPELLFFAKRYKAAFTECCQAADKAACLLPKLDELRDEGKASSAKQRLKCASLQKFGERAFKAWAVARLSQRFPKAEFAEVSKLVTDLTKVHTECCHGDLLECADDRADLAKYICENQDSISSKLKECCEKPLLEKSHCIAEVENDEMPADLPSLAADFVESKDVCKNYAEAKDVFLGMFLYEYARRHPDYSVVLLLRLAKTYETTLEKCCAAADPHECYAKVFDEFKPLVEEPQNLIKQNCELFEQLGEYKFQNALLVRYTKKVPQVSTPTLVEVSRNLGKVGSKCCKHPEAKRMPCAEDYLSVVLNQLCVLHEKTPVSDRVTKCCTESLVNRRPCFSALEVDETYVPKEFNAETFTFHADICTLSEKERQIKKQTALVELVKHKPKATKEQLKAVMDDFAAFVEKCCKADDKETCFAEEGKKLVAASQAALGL

Target: human serum albumin (HSA) (Homo sapiens, UniProt P02768)
Test: Biolayer interferometry (BLI) binding to biotinylated HSA
Conditions: Table 1, PBS pH 7.4
Protocol: In this study, we used the streptavidin conjugated biosensors (Pall Fort6Bio LLC, CA). We preincubated the biosensors with biotinylated HSA (Abeam Inc., Cambridge, Mass.) for 10 minutes. After removing the unbound biotinylated HSA, the biosensors were washed for 1 minute. After blocking the spare biosensor, we added EZ-Link™ Sulfo-NHS-Biotin (Thermo Fisher Scientific, Rockford, Ill.) to each well and then removed it and washed the wells.
Association of a given dilution of a compound with the albumin-derivatized biosensor was measured for 600 seconds and then in turn, dissociation of the compound from the albumin measured for another 600 seconds. Data was analyzed using the OCTET Data Analysis software 7.0.

Cc1cc(-c2ccc(N=Nc3ccc4c(S(=O)(=O)O)cc(S(=O)(=O)O)c(N)c4c3O)c(C)c2)ccc1N=Nc1ccc2c(S(=O)(=O)O)cc(S(=O)(=O)O)c(N)c2c1O [EB, tetrasodium salt of 6,6′-{(3,3′-dimethyl[1,1′-biphenyl]-4,4′-diyl)bis[diazene-2,1-diyl]}bis(4-amino-5-hydroxynaphthalene-1,3-disulfonate)]
Kd: 3.7 µM

Counter-ions that a name gives are not always drawn.
